Ends that are not written are not given here.
Columns and labels:
rat PTH2R [1] = target: T1, rat PTH2R (Rattus norvegicus, UniProt P70555); assay: cAMP SPA assay for PTH2R activation, rat PTH2R; format: cell-based; conditions: HEK293 cells stably expressing rat PTH2R; mean±S.D., n=3-7
T1 construct: V5-His (appears only in the vector name); expressed in transfected cells
Excerpt: HEK293 cells were transfected with rat and human PTH2R and cell lines that stably express the receptors were established and evaluated. One cell line was selected for each rat and human PTH2R and used for all the functional assays. Specifically, HEK293 cells were transfected with pCDNA3.1/V5-His-RatPTH2R plasmid DNA and pCDNA3.1-E/Uni-lacZ-HumanPTH2R plasmid DNA using FuGENE 6 transfection reagent (Roche Molecular Biochemicals). Three days after transfection, cells were put under selection with 800 μg/ml geneticin (G418, Gibco BRL). After three weeks of selection, single colonies were cloned using cloning cylinders. Cloned colonies were scaled up to T25 flasks. More than 10 cell lines for each plasmid were tested for function in the cAMP SPA assay.
HEK293PTH2R cells were seeded in a 96-well poly-D-lysine coated plate at 100,000 cells per well and cultured overnight. After washing with 200 μl of PBS and treating with 100 μl of 300 nM IBMX in assay medium (MEM without phenol red and FBS) at 37° C. for 10 min. The assay medium was then aspirated and the cells were washed with PBS. The cellular of cAMP was measured using cAMP SPA Direct Screening (Amersham/Pharmacia RPA559). Each concentration of ligand was repeated as triplicate.

The chains behind the UniProt entries cited, without tags or fusion partners. Residues count along the entry.
UniProt P70555, 25-546: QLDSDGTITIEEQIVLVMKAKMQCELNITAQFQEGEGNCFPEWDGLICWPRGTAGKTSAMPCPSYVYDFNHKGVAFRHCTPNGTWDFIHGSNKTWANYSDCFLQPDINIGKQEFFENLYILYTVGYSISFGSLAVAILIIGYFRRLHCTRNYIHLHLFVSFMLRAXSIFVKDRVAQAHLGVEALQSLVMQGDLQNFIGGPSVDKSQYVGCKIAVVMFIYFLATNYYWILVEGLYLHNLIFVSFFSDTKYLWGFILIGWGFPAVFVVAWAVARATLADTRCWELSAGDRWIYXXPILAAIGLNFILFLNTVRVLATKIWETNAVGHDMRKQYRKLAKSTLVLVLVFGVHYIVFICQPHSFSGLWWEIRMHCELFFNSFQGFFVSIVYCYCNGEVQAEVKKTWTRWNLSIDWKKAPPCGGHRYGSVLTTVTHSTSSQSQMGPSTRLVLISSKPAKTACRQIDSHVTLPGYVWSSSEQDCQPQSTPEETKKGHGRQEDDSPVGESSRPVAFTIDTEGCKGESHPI

rat PTH2R [2] = target: rat PTH2R (rat, UniProt P70555 25-546); assay: cell-based or functional assay

Row | Molecule | logEC50, increase in cAMP (rat PTH2R [1]) | logEC50, cAMP increase (cAMP SPA assay) in HEK293 cells stably expressing rat PTH2R (rat PTH2R [2])
1 | human PTH(1-34) | −9.3±0.2 | –
2 | rat PTH(1-34) | −10.3±0.5 | –
3 | AVSEIQLMHNLGKHLASVERMQWLRKKLQDVHNF (peptide, UniProt P04089 32-65, looked up, not fully specified) [rat PTH(1-34)] | – | -10.3
